# In paper PMC9340777 (Journal of Medicinal Chemistry, 2022):
# “And” between values parts separate entries of the source, which are not always exact repeats. Equal values may be shown once.
# Experiment: Aqueous stability of monobasic prodrugs in pH 6.5 PBS (LC–MS)
# Settings: pH 6.5 phosphate buffer, 37 °C, average of n = 2
row,Structure (SMILES),PBS T1/2 (h) pH 6.5
1,CC[C@H](N)C(=O)OC(C)OC(=O)N1CCC(OC(=O)C(O)(c2ccccc2)c2ccccc2)CC1.Cl (stereo partly drawn),2.93 h
2,CC(OC(=O)N1CCC(OC(=O)C(O)(c2ccccc2)c2ccccc2)CC1)OC(=O)C(C)(C)N.Cl (stereo not drawn),3.05 h
3,CC(OC(=O)CCN)OC(=O)N1CCC(OC(=O)C(O)(c2ccccc2)c2ccccc2)CC1.Cl (stereo not drawn),7.3 h and 7.31 h
4,CNCC(=O)OC(C)OC(=O)N1CCC(OC(=O)C(O)(c2ccccc2)c2ccccc2)CC1.Cl (stereo not drawn),0.39 h
5,CC(OC(=O)[C@H](C)N)OC(=O)N1CCC(OC(=O)C(O)(c2ccccc2)c2ccccc2)CC1.Cl (stereo partly drawn),1.71 h
6,CC(OC(=O)CCCN)OC(=O)N1CCC(OC(=O)C(O)(c2ccccc2)c2ccccc2)CC1.Cl (stereo not drawn),0.07 h
